Results as given in PubChem BioAssay AID488839 (Broad Institute, 2010).
Some of the results follow. Active and inactive are the calls of the source.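 The calls were made as follows: active = highest replicate inhibition of at least 50% and at least 75% of replicates reaching 50%; inconclusive = only one of the two criteria met; inactive = both criteria failed.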

The chains behind the UniProt entries cited, without tags or fusion partners. Where a name states a change or a piece, a line headed by the entry shows the natural chain unless it says otherwise.
UniProt Q00535, whole entry, looked up: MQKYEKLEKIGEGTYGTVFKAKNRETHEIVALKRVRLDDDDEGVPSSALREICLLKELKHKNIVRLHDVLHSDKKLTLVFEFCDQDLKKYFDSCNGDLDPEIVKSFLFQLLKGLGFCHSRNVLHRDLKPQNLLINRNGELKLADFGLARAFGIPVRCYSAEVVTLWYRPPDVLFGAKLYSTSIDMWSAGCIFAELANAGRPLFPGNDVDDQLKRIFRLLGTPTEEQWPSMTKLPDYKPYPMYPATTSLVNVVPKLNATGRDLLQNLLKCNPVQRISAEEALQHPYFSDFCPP
UniProt Q15078: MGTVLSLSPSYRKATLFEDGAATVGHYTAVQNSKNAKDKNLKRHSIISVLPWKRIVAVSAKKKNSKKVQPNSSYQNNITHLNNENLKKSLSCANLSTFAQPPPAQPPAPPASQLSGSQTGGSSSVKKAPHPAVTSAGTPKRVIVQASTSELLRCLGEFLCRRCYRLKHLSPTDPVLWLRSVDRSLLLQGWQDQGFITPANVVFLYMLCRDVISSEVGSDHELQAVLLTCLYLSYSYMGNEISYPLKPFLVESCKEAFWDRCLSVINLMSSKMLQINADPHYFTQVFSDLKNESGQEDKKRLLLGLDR

The compounds below were run against Cyclin-dependent kinase 5 (Homo sapiens) + Cyclin-dependent kinase 5 activator 1 (Homo sapiens) (UniProt Q00535+Q15078) (assay: CDK5/p35 phosphotransfer blockade – biochemical, single concentration, primary screen (AID 488839;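 also: plate controls were DMSO neutral control for no effect and GW8510 at 10 µM for full effect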)). Details: Recombinant CDK5/p35, ADP-Glo luminescence, 60 min; at 10 µM; hits give high values.
With `O=[As](O)(c1cccc(O)c1)c1cccc(O)c1` the inhibition was inactive: -0.335%. For `O=C(OC1CN2CCC1CC2)c1ccc(Cl)cc1` (stereo not drawn), the inhibition was inactive: 0.565%. With `CS(=O)(=O)c1ccc(Cl)c(NC(=O)COC(=O)C(O)(c2ccccc2)c2ccccc2)c1` the inhibition was inactive: -2.21%. `O=[As](O)(O)c1cccnc1` was tested, and the inhibition was inactive: 0.263%. `COc1cc(C(=O)NCC2(N3CCOCC3)CCCCC2)cc(Cl)c1OC(C)C` was tested, and the inhibition was inactive: -0.685%. For `CCOP1(=S)c2c(C)nn(CCC#N)c2N=C(c2ccc(F)cc2)N1C` (stereo not drawn), the inhibition was inactive: 3.53%. `CN(C(=O)Cc1ccccc1)[C@@H]1CC[C@]2(CCCO2)C[C@H]1N1CCCC1` was tested, and the inhibition was inactive: -0.548%. With `N#CCCN(C(=O)COC(=O)C(O)(c1ccccc1)c1ccccc1)c1ccc(F)cc1` the inhibition was inactive: -1.94%. With `CN(C(=O)Cc1ccc(Cl)c(Cl)c1)[C@H]1CC[C@@]2(CCCO2)C[C@@H]1N1CCCC1` the inhibition was inactive: -0.648%. `O=[N+]([O-])c1ccc2c(c1)nnn2O` was tested, and the inhibition was inactive: 3.05%. `CN(C)C(=O)c1cc([N+](=O)[O-])cc2c1-c1c(cc([N+](=O)[O-])cc1[N+](=O)[O-])C2=O` was tested, and the inhibition was inactive: -3.96%. With `NC(=O)Nc1ccc([As](=O)(O)O)cc1` the inhibition was inactive: -0.169%. `Nc1ccccc1[As](=O)(O)c1ccccc1` was tested, and the inhibition was inactive: 0.328%. With `O=C(O)COc1ccc([As](=O)(O)O)cc1[N+](=O)[O-]` the inhibition was inactive: 1.24%. In the case of `O=P(Nc1nccs1)(Oc1ccccc1)Oc1ccccc1`, the inhibition is reported as inactive: 0.956%. With `O=P(Nc1nccs1)(c1ccccc1)c1nc2ccccc2s1` (stereo not drawn) the inhibition was inactive: -0.0861%. With `CCOP1(=S)c2c(C)nn(CCC#N)c2N=C(c2ccccc2F)N1C` (stereo not drawn) the inhibition was inactive: -0.831%. With `CS(=O)(=O)c1cc([N+](=O)[O-])c2no[n+]([O-])c2c1` the inhibition was inactive: 0.186%. `O=c1c2cc([N+](=O)[O-])ccc2[nH]c2c([N+](=O)[O-])cc([N+](=O)[O-])cc12` was tested, and the inhibition was inactive: 0.451%. With `CN(C)C(=O)Oc1noc2ccccc12` the inhibition was inactive: 0.393%. With `CC(NC(=O)COC(=O)C(O)(c1ccccc1)c1ccccc1)c1ccccc1` (stereo not drawn) the inhibition was inactive: 0.427%. For `Cc1ccccc1OP(=O)(Nc1ccccn1)Oc1ccccc1C`, the inhibition was inactive: -2.07%. `CCC(=O)N1C2C3N(C(=O)CC)C1C1N(C(=O)CC)C(C(N1C(=O)CC)N3C(=O)CC)N2C(=O)CC` was tested, and the inhibition was inactive: 0.941%. With `O=C(OC1CN2CCC1CC2)c1ccccc1` (stereo not drawn) the inhibition was inactive: -0.126%. For `CC(=O)NC(SC(=S)N(CC(C)C)CC(C)C)C(Cl)(Cl)Cl` (stereo not drawn), the inhibition was inactive: -1.3%. `COC(=O)c1cc2c(s1)N=C(c1ccccc1)N(C)P2(=O)N1CCOCC1` (stereo not drawn) was tested, and the inhibition was inactive: 0.102%. With `O=P1(N(CCCl)CCCl)OCCC2CCCCN21` (stereo not drawn) the inhibition was inactive: -5.91%. `Cc1ccc(NP(=O)(Oc2cccc(C)c2)Oc2cccc(C)c2)nc1` was tested, and the inhibition was inactive: 0.993%. In the case of `c1ccc(-c2nn[nH]n2)c(-c2nn[nH]n2)c1`, the inhibition is reported as inactive: -1.49%. `CCNC(=S)/N=C(\N)N[N+](=O)[O-]` was tested, and the inhibition was inactive: 1.79%. In the case of `O=C(NC1CCS(=O)(=O)C1)NP(=S)(Oc1ccccc1)Oc1ccccc1` (stereo not drawn), the inhibition is reported as inactive: 2.43%. In the case of `CC(=O)Nc1ccc(Oc2c([N+](=O)[O-])cc([N+](=O)[O-])cc2[N+](=O)[O-])cc1`, the inhibition is reported as inactive: -4.62%. For `CC(=O)Nc1ccc([As](=O)(O)O)c(O)c1`, the inhibition was inactive: 0.487%. `C[C@H]1OP(=O)(Oc2ccccc2)C[C@@H]2O[C@@H]21` (stereo partly drawn) was tested, and the inhibition was inactive: 2.77%. `C[C@@H]1C=CCP(=O)(Oc2ccccc2)O1` (stereo partly drawn) was tested, and the inhibition was inactive: -1.68%. `Cc1ccccc1CN(C)C(=O)COC(=O)C(O)(c1ccccc1)c1ccccc1` was tested, and the inhibition was inactive: -0.581%. `COC(=O)C1(C)COP(=O)(NCc2ccccc2)OC1` (stereo not drawn) was tested, and the inhibition was inactive: -0.0518%. With `CC(=O)c1ccc(N2CC2c2ccncc2)cc1` (stereo not drawn) the inhibition was inactive: -0.183%. `N#C/C(=C\c1ccc(N(CCBr)CCBr)cc1)C(N)=O` was tested, and the inhibition was inactive: -0.381%. For `CC(C)(C)C(=O)NC(Sc1ccccc1)C(Cl)(Cl)Cl` (stereo not drawn), the inhibition was inactive: 0.398%. For `CCc1cc(O)c([N+](=O)[O-])c(C)c1[N+](=O)[O-]`, the inhibition was inactive: 1.38%. For `CCOc1ccc(C2=NCC(CBr)S2)cc1` (stereo not drawn), the inhibition was inactive: 0.0511%. With `O=P1(Nc2nc3ccc(Cl)cc3s2)COc2ccccc2O1` (stereo not drawn) the inhibition was inactive: 0.924%. `c1nnnn1CCn1cnnn1` was tested, and the inhibition was inactive: 0.927%. `CC(C)C(=O)NC(Sc1ccccc1)C(Cl)(Cl)Cl` (stereo not drawn) was tested, and the inhibition was inactive: -8.7%. In the case of `O=P(Nc1nccs1)(c1ccccc1)c1ccccc1`, the inhibition is reported as inactive: 0.884%. In the case of `O=C(OC1CN2CCC1CC2)c1cccc(Cl)c1` (stereo not drawn), the inhibition is reported as inactive: 0.513%. For `C(Cc1nn[nH]n1)Cc1nn[nH]n1`, the inhibition was inactive: -1.19%.
